Test: Bone and liver uptake scored from scintigraphic images of miniature pigs with melanotic lesions
Format: in vivo
Conditions: 24 hour images; average score of 3 investigators, scale 0-3
Procedure: Images (right lateral, left lateral and dorsal) were made at 4, 24, 48 and 72 hours.
1--Slight uptake (negligible)
2--Moderate uptake (intermediate )
3--Definite uptake (high)
The average of the 3 investigators independent scores were used in the following table.

Row | Compound | Bone Uptake
1 | CC(=O)Nc1cc(CN(CC(=O)O)CC(=O)O)c(O)c(CN(CC(=O)O)CC(=O)O)c1.[153Sm+3] [Example 4] | 2.67
2 | CC(=O)Nc1cc(CN(CC(=O)O)CC(=O)O)c(O)c(CN(CC(=O)O)CC(=O)O)c1.[153Sm+3] [Example 3] | 2.67
3 | CC(=O)Nc1cc(CN(CC(=O)O)CC(=O)O)c(O)c(CN(CC(=O)O)CC(=O)O)c1.[153Sm+3] [Example 1] | 2.67

From patent US5342925A, “Radioactive compositions for soft tissue tumors” (priority 1991, dated 1994)
